# Like-named read-outs stand apart in the source and are kept apart here.
# System: Colon 6044 (human colon carcinoma)
# Conditions: for Optimum T/C [%] (on day) / Toxic deaths (d): Q3 × 5
smiles,measurement,setting,value
"Nc1ccn([C@@H]2O[C@H](CO)[C@@H](O)C2(F)F)c(=O)n1 [Gemcitabine, 2′,2′-difluorodeoxycytidine, reference compound]",Optimum T/C [%] (on day),Oral 120 mg/kg,Toxic
same,Toxic deaths (d),"Oral 120 mg/kg, deaths days 11-16",7/8(11-16)
same,Optimum T/C [%] (on day),Oral 180 mg/kg,Toxic
same,Toxic deaths (d),"Oral 180 mg/kg, deaths days 11-16",7/8(11-16)
same,Optimum T/C [%] (on day),Oral 240 mg/kg,Toxic
same,Toxic deaths (d),"Oral 240 mg/kg, deaths days 11-15",8/8(11-15)
same,toxicity after oral administration compared to intraperitoneal (parenteral) administration (in words),"mouse, in vivo",largely increased

# Reference: US20070225248A1 (Clavis Pharma AS, priority 2006, published 2007)
